Test results published in US10100019B2.
Where two headings read alike, the source gives them in different places.

Tested on: Ba/F3 EML4-ALK L1196M cells
Assay type: cell-based, rodent
[1] = Ba/F3 EML4-ALK L1196M cells, method as Experimental Example 4, type of value not given

Row | SMILES | BaF3 EML4 ALK L1196M [1] | BaF3 EML4 ALK L1196M
1 | CNC(C)(C)c1cc(OC)c(Nc2ncc(Cl)c(Nc3ccccc3S(=O)(=O)C(C)C)n2)cc1C [Example 64, 5-chloro-N4-(2-(isopropylsulfonyl)phenyl)-N2-(2-methoxy-5-methyl-4-(2-(methylamino)propane-2-yl)phenyl)pyrimidine-2,4-diamine] | 0.066 µM | –
2 | COc1ccc(CCCN)cc1Nc1ncc(Cl)c(Nc2ccccc2S(=O)(=O)C(C)C)n1 [Example 41, N2-(5-(3-aminopropyl)-2-methoxyphenyl)-5-chloro-N4-(2-(isopropylsulfonyl)phenyl)pyrimidine-2,4-diamine] | 0.49 µM | –
3 | COc1ccc(CC(=O)Nc2ccncc2)cc1Nc1ncc(Cl)c(Nc2ccccc2S(=O)(=O)C(C)C)n1 [Example 49, 2-(3-((5-chloro-4-((2-(isopropylsulfonyl)phenyl)amino)pyrimidine-2-yl)amino)-4-methoxyphenyl)-N-(pyridine-4-yl)acetamide] | 10 µM | –
4 | COc1ccc(CC(=O)Nc2ccccc2)cc1Nc1ncc(Cl)c(Nc2ccccc2S(=O)(=O)C(C)C)n1 [Example 50, 2-(3-((5-chloro-4-((2-(isopropylsulfonyl)phenyl)amino)pyrimidine-2-yl)amino)-4-methoxyphenyl)-N-phenylacetamide] | 10 µM | –
5 | COc1ccc(C(C)(C)CN)cc1Nc1ncc(Cl)c(Nc2ccccc2S(=O)(=O)C(C)C)n1 [Example 35, N2-(5-(1-amino-2-methylpropane-2-yl)-2-methoxyphenyl)-5-chloro-N4-(2-(isopropylsulfonyl)phenyl)pyrimidine-2,4-diamine] | 5 µM | –
6 | COc1cc(CCN(C)C)c(C)cc1Nc1ncc(Cl)c(Nc2ccccc2S(=O)(=O)C(C)C)n1 [Example 58, 5-chloro-N2-(4-(2-(dimethylamino)ethyl)-2-methoxy-5-methylphenyl)-N4-(2-(isopropylsulfonyl)phenyl)pyrimidine-2,4-diamine] | 0.035 µM | –
7 | COc1ccc(CCNC(=S)NCc2ccccc2)cc1Nc1ncc(Cl)c(Nc2ccccc2S(=O)(=O)C(C)C)n1 [Example 20, 1-benzyl-3-(3-(5-chloro-4-(2-(isopropylsulfonyl)phenylamino)pyrimidine-2-ylamino)-4-methoxyphenethyl)thiourea] | 0.41 µM | –
8 | COc1ccc(CCNS(C)(=O)=O)cc1Nc1ncc(Cl)c(Nc2ccccc2S(=O)(=O)C(C)C)n1 [Example 8, N-(3-(5-chloro-4-(2-(isopropylsulfonyl)phenylamino)pyrimidine-2-ylamino)-4-methoxyphenethyl) methanesulfonamide] | 0.97 µM | –
9 | COc1ccc(CCNC(=O)C(F)(F)F)cc1Nc1ncc(Cl)c(Nc2ccccc2S(=O)(=O)C(C)C)n1 [Example 30, N-(3-(5-chloro-4-(2-(isopropylsulfonyl)phenylamino)pyrimidine-2-ylamino)-4-methoxyphenethyl)-2,2,2-trifluoroacetamide] | 0.32 µM | –
10 | COc1ccc(CCNC(C)C)cc1Nc1ncc(Cl)c(Nc2ccccc2S(=O)(=O)C(C)C)n1 [Example 15, 5-chloro-N2-(5-(2-(isopropylamino)ethyl)-2-methoxyphenyl)-N4-(2-(isopropylsulfonyl)phenyl)pyrimidine-2,4-diamine] | 0.68 µM | –
11 | COc1ccc(CCN2CCCCC2)cc1Nc1ncc(Cl)c(Nc2ccccc2S(=O)(=O)C(C)C)n1 [Example 21, 5-chloro-N4-(2-(isopropylsulfonyl)phenyl)-N2-(2-methoxy-5-(2-(piperidine-1-yl)ethyl)phenyl)pyrimidine-2,4-diamine] | 0.09 µM | –
12 | COc1ccc(CCNC(=O)Nc2ccccc2)cc1Nc1ncc(Cl)c(Nc2ccccc2S(=O)(=O)C(C)C)n1 [Example 18, 1-(3-(5-chloro-4-(2-(isopropylsulfonyl)phenylamino)pyrimidine-2-ylamino)-4-methoxyphenethyl)-3-phenylurea] | 1.9 µM | –
13 | COc1cc(CN(C)C)c(C)cc1Nc1ncc(Cl)c(Nc2ccccc2S(=O)(=O)C(C)C)n1 [Example 70, 5-chloro-N2-(4-((dimethylamino)methyl)-2-methoxy-5-methylphenyl)-N4-(2-(isopropylsulfonyl)phenyl)pyrimidine-2,4-diamine] | – | 0.066 µM
14 | COc1cc(CC#N)c(C)cc1Nc1ncc(Cl)c(Nc2ccccc2S(=O)(=O)C(C)C)n1 [Example 53, 2-(4-((5-chloro-4-((2-(isopropylsulfonyl)phenyl)amino)pyrimidine-2-yl)amino)-5-methoxy-2-methylphenyl)acetonitrile] | 0.19 µM | –
15 | COc1cc(-c2cnn(C)c2)c(CCN)cc1Nc1ncc(Cl)c(Nc2ccccc2S(=O)(=O)C(C)C)n1 [Example 52, N2-(5-(2-aminoethyl)-2-methoxy-4-(1-methyl-1H-pyrazole-4-yl)phenyl)-5-chloro-N4-(2-(isopropylsulfonyl)phenyl)pyrimidine-2,4-diamine] | 0.49 µM | –
16 | COc1ccc(CCCNC(=O)C(F)(F)F)cc1Nc1ncc(Cl)c(Nc2ccccc2S(=O)(=O)C(C)C)n1 [Example 40, N-(3-(3-((5-chloro-4-((2-(isopropylsulfonyl)phenyl)amino)pyrimidine-2-yl)amino)-4-methoxyphenyl)propyl)-2,2,2-trifluoroacetamide] | 1.5 µM | –
17 | COc1ccc(CNC(=O)C(F)(F)F)cc1Nc1ncc(Cl)c(Nc2ccccc2S(=O)(=O)C(C)C)n1 [Example 28, N-(3-((5-chloro-4-((2-(isopropylsulfonyl)phenyl)amino)pyrimidine-2-yl)amino)-4-methoxybenzyl)-2,2,2-trifluoroacetamide] | 0.8 µM | –
18 | COc1cc(C[N+](C)(C)C)c(C)cc1Nc1ncc(Cl)c(Nc2ccccc2S(=O)(=O)C(C)C)n1 [Example 69, 1-(4-((5-chloro-4-((2-(isopropylsulfonyl)phenyl)amino)pyrimidine-2-yl)amino)-5-methoxy-2-methylphenyl)-N,N,N-trimethylmethanealuminum iodide] | >10 µM | –
19 | COc1ccc(C2(CN3CCOCC3)CCCC2)cc1Nc1ncc(Cl)c(Nc2ccccc2S(=O)(=O)C(C)C)n1 [Example 6, 5-chloro-N4-(2-(isopropylsulfonyl)phenyl)-N2-(2-methoxy-5-(1-(morpholinomethyl)cyclopentyl)phenyl)pyrimidine-2,4-diamine] | 2.1 µM | –
20 | COc1cc(-c2ccccc2)c(CCN)cc1Nc1ncc(Cl)c(Nc2ccccc2S(=O)(=O)C(C)C)n1 [Example 67] | 0.39 µM | –
21 | COc1ccc(CCNC(=O)Cc2ccccc2)cc1Nc1ncc(Cl)c(Nc2ccccc2S(=O)(=O)C(C)C)n1 [Example 12, N-(3-(5-chloro-4-(2-(isopropylsulfonyl)phenylamino)pyrimidine-2-ylamino)-4-methoxyphenethyl)-2-phenylacetamide] | 0.97 µM | –
22 | C=C(C)c1cc(OC)c(Nc2ncc(Cl)c(Nc3ccccc3S(=O)(=O)C(C)C)n2)cc1CCN [Example 75, N2-(5-(2-aminoethyl)-2-methoxy-4-(prop-1-ene-2-yl)phenyl)-5-chloro-N4-(2-(isopropylsulfonyl)phenyl)pyrimidine-2,4-diamine] | 0.39 µM | –
23 | COc1ccc(CCN)cc1Nc1ncc(Cl)c(Nc2ccc(F)cc2S(=O)(=O)C(C)C)n1 [Example 32, N2-(5-(2-aminoethyl)-2-methoxyphenyl)-5-chloro-N4-(4-fluoro-2-(isopropylsulfonyl)phenyl)pyrimidine-2,4-diamine] | 1.8 µM | –
24 | COc1ccc(CCN2CCNCC2)cc1Nc1ncc(Cl)c(Nc2ccccc2S(=O)(=O)C(C)C)n1 [Example 73, 5-chloro-N4-(2-(isopropylsulfonyl)phenyl)-N2-(2-methoxy-5-(2-(piperazine-1-yl)ethyl)phenyl)pyrimidine-2,4-diamine] | 0.32 µM | –
